Laboratory results as given in patent US20210322545A1 (priority 2016, published 2021).

Tests used:
cancer cell lines = assay: In vitro viability assay (Alamar blue), cancer cell lines; format: cell-based; details: 5 μM monovalent SMCs, VSVΔ51 at differing MOIs
EMT6 mammary tumors = assay: EMT6 mammary tumor model; format: in vivo, mouse; details: compared to isotype matched antibody controls
SNB75 cells = assay: In vitro viability assay (Alamar blue), SNB75; format: cell-based, human; details: read-out: EC50 of SMC therapy, with low dose of VSVΔ51 (0.1 MOI)

CN[C@@H](C)C(=O)N[C@H](C(=O)N1CCC[C@H]1c1nc(C(=O)c2ccc(F)cc2)cs1)C1CCCCC1 [LCL161]
synergy with VSVΔ51 to cause cancer cell death (cancer cell lines): synergize
effect of TNFα neutralizing antibodies on SMC and VSVΔ51 efficacy (EMT6 mammary tumors): reverted the tumor regression
EC50 (SNB75 cells): 21.9 nM
